These results are taken from paper PMC5732813, “Novel piplartine-containing ruthenium complexes: synthesis, cell growth inhibition, apoptosis induction and ROS production on HCT116 cells” (Oncotarget, 2017).

The conditions of series [1]: 31P{1H} NMR; for stability in coordinating solvents: DMSO, methanol or DMF; for stability in noncoordinating solvents: acetone, dichloromethane or chloroform.
For series [2] the following is noted: methanol/water solution (57/43).

As to “[Ru(piplartine)(dppb)(bipy)](PF6)2 [Complex 2]”, in series [1], the “stability in coordinating solvents” value is “instability” and the “stability in noncoordinating solvents” value is “at least 72 h”. Besides, the “time to complete labilization of piplartine” value in series [1] (acetone/water (1:9) mixture) is 24 h. Also, the “stability in the HPLC eluent” value in series [2] is recorded as “instability”.

On to “[Ru(piplartine)(dppf)(bipy)](PF6)2 [Complex 1]”, for which, in series [1], the “stability in coordinating solvents” value is on record as “instability” and the “stability in noncoordinating solvents” value was “at least 72 h”.
